Experiments:
Assay in all cases: radiometric filter-binding kinase assay, Kinase HotSpot
Conditions in all cases: compound 0.5 µM; ATP 10 µM
[1] = target: NEK2 (human) (UniProt P51955)
[2] = target: PDGFRA (human) (UniProt P16234)
[3] = target: MAP3K5 (human) (UniProt Q99683)
[4] = target: RPS6KA1 KD1 KD2 (human) (UniProt Q15418)
[5] = target: DAPK1 (human) (UniProt P53355)
[6] = target: MAPK14 (human) (UniProt Q16539)
[7] = target: EGFR (human) (UniProt P00533)
[8] = target: MAP4K2 (human) (UniProt Q12851)
[9] = target: DCLK2 (human) (UniProt Q8N568)
[10] = target: GSK3A (human) (UniProt P49840)
[11] = target: MAP3K8 (human) (UniProt P41279)
[12] = target: RET (human) (UniProt P07949)
[13] = target: NTRK2 (human) (UniProt Q16620)
[14] = target: BTK (human) (UniProt Q06187)
[15] = target: FLT1 (human) (UniProt P17948)
[16] = target: TAOK1 (human) (UniProt Q7L7X3)
[17] = target: ROCK2 (human) (UniProt O75116)
[18] = target: PRKD2 (human) (UniProt Q9BZL6)
[19] = target: MLTK (human) (UniProt Q9NYL2)
[20] = target: RPS6KA2 KD1 KD2 (human) (UniProt Q15349)
[21] = target: DYRK2 (human) (UniProt Q92630)
[22] = target: HIPK2 (human) (UniProt Q9H2X6)
[23] = target: MAPK1 (human) (UniProt P28482)
[24] = target: FGFR1 (human) (UniProt P11362)
[25] = target: RAF1 (human) (UniProt P04049)
[26] = target: YES1 (human) (UniProt P07947)
[27] = target: PTK6 (human) (UniProt Q13882)
[28] = target: STK39 (human) (UniProt Q9UEW8)
[29] = target: STK25 (human) (UniProt O00506)
[30] = target: DYRK4 (human) (UniProt Q9NR20)
[31] = target: ALK (human) (UniProt Q9UM73)
[32] = target: CSK (human) (UniProt P41240)
[33] = target: CSNK1G3 (human) (UniProt Q9Y6M4)
[34] = target: STK16 (human) (UniProt O75716)
[35] = target: TXK (human) (UniProt P42681)
[36] = target: PLK3 (human) (UniProt Q9H4B4)
[37] = target: BMX (human) (UniProt P51813)
[38] = target: DDR2 (human) (UniProt Q16832)
[39] = target: AKT1 (human) (UniProt P31749)
[40] = target: TYRO3 (human) (UniProt Q06418)
[41] = target: WEE1 (human) (UniProt P30291)
[42] = target: MAPKAPK3 (human) (UniProt Q16644)

Sequences of proteins named here, by UniProt entry; tags and fusion partners are left off. A change or cut given only in a name is not applied to a line headed by its entry.
UniProt P53355: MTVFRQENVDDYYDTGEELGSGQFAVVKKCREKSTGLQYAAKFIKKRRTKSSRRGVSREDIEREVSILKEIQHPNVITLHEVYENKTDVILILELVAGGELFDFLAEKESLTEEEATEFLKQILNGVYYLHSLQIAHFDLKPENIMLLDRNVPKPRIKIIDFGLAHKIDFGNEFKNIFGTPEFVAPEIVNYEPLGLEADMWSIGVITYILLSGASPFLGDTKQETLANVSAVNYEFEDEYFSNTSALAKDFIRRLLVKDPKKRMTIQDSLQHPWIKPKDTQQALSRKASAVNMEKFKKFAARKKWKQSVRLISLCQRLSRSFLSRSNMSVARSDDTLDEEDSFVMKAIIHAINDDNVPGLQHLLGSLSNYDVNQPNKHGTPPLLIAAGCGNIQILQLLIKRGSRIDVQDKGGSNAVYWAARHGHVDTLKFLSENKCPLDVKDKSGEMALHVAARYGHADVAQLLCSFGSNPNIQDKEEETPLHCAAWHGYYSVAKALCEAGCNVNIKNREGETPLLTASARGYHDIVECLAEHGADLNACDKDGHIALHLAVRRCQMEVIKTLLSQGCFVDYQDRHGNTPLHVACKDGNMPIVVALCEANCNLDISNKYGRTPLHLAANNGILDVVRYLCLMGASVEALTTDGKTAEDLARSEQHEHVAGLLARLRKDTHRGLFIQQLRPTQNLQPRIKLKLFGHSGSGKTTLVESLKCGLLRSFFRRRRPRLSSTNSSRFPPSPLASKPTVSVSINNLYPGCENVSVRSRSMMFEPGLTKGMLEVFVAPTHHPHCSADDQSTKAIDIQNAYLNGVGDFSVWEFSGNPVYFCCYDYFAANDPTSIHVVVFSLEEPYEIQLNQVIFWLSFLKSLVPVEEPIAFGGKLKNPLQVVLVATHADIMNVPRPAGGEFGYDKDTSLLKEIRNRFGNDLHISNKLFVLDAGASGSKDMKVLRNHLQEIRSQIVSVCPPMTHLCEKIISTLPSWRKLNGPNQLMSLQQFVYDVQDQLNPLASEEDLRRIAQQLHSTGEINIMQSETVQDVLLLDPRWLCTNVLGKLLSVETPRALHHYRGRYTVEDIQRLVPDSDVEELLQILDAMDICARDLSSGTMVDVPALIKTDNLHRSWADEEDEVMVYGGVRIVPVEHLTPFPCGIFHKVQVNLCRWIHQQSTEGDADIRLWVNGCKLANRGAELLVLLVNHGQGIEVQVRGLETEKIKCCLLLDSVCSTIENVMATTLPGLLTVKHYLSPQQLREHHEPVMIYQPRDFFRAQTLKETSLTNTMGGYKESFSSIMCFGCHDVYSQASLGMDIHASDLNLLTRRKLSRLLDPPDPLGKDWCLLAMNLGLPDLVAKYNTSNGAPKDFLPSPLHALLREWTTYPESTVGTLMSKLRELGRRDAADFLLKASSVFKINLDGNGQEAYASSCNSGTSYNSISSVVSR
UniProt P41279, whole entry, looked up: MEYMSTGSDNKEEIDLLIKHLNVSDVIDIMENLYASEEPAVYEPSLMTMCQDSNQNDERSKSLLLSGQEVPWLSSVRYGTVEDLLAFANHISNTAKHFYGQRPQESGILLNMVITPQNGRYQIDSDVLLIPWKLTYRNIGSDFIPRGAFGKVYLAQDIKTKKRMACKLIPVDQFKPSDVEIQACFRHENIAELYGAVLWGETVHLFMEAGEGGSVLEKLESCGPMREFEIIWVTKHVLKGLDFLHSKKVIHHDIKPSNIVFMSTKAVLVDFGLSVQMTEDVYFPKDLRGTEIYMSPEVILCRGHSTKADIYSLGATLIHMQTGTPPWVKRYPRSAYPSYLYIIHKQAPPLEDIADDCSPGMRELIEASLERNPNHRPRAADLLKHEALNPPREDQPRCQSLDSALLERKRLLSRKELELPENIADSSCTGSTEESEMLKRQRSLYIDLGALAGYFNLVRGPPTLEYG
UniProt Q7L7X3: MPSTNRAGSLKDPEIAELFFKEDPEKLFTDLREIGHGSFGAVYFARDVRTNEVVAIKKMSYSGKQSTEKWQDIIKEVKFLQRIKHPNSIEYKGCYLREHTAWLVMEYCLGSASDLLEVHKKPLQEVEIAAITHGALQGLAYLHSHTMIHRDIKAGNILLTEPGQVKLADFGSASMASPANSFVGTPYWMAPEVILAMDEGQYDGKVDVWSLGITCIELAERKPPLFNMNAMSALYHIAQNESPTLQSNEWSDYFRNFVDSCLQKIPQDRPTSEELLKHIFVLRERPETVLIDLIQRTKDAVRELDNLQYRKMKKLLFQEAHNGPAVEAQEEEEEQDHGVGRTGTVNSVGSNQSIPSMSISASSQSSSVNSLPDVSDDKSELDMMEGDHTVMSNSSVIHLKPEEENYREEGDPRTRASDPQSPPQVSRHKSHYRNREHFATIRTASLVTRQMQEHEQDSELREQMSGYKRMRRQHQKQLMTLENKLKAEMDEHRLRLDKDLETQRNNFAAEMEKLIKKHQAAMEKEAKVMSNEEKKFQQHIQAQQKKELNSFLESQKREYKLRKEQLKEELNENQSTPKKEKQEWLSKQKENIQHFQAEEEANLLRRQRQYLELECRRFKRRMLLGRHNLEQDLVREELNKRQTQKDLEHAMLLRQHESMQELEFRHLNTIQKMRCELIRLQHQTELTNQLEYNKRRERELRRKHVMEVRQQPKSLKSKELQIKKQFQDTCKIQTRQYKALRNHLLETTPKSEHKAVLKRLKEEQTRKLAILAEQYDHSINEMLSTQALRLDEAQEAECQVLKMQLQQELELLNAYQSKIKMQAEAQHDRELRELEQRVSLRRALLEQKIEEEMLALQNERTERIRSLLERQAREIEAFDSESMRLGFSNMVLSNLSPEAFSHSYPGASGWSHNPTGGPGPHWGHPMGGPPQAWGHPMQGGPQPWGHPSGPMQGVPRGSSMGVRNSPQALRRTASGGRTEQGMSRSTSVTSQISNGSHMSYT
UniProt Q15349, whole entry, looked up: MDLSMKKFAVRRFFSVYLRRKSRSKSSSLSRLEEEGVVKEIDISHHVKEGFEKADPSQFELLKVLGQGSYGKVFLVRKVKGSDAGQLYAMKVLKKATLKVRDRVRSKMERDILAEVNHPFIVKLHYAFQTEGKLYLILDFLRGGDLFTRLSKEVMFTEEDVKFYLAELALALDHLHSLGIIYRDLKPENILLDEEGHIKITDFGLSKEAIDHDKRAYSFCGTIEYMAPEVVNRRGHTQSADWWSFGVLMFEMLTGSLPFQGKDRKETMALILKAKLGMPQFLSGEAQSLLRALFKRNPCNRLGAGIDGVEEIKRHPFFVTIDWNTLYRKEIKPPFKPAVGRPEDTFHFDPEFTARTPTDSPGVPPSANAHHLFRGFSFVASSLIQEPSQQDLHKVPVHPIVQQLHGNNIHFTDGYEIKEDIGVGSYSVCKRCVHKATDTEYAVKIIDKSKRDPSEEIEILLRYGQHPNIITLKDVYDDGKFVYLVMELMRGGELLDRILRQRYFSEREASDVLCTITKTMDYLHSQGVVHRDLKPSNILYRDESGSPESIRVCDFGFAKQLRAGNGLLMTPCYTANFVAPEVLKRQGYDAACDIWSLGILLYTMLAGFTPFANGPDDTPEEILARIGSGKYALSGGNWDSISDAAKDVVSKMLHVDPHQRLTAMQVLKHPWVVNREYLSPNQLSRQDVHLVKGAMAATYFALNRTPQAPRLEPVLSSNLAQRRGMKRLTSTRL
UniProt Q9NR20: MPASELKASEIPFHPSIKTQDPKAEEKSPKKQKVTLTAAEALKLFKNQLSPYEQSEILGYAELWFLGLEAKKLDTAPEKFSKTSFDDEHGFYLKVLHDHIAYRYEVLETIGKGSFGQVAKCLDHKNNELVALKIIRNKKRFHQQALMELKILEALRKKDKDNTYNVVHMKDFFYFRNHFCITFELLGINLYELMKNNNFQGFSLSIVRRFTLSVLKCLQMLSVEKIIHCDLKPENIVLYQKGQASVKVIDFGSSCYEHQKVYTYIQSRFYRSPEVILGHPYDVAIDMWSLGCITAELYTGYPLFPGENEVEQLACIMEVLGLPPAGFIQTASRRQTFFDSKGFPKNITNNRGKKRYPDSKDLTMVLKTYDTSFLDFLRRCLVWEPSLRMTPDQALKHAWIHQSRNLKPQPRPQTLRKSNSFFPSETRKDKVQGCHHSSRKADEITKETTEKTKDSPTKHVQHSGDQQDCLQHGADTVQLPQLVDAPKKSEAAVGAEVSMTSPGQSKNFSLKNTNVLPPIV
UniProt P42681: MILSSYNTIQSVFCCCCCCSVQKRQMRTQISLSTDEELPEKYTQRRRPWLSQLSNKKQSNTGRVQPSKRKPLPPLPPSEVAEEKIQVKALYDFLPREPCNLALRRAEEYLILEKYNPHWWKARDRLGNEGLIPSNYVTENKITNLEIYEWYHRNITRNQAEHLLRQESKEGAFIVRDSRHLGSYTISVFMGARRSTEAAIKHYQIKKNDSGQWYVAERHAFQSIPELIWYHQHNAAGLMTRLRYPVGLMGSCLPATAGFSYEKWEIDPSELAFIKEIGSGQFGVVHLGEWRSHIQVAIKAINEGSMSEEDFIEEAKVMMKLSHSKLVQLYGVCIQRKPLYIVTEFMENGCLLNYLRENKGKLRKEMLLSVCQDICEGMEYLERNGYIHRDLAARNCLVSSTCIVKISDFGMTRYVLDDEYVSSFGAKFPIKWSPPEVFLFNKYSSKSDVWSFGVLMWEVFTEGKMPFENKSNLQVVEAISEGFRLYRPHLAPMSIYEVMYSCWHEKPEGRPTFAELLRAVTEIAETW
UniProt Q9H4B4: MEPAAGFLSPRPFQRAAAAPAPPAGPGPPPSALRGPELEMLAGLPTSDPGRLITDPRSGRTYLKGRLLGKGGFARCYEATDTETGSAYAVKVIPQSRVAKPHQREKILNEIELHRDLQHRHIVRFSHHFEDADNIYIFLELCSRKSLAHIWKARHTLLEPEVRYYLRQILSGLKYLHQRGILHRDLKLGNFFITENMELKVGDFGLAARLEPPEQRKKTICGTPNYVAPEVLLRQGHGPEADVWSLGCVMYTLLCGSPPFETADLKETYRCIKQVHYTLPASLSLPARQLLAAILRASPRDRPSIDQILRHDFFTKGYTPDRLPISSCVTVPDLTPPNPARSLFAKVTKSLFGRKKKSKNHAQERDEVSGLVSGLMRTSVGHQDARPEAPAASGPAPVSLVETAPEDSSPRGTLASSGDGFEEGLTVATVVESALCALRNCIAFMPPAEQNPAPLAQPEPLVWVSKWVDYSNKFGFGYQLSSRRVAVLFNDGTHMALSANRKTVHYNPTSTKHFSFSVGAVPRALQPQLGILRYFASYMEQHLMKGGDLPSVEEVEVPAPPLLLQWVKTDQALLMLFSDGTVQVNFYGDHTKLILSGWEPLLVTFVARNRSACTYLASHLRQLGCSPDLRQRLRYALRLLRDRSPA
UniProt Q16832: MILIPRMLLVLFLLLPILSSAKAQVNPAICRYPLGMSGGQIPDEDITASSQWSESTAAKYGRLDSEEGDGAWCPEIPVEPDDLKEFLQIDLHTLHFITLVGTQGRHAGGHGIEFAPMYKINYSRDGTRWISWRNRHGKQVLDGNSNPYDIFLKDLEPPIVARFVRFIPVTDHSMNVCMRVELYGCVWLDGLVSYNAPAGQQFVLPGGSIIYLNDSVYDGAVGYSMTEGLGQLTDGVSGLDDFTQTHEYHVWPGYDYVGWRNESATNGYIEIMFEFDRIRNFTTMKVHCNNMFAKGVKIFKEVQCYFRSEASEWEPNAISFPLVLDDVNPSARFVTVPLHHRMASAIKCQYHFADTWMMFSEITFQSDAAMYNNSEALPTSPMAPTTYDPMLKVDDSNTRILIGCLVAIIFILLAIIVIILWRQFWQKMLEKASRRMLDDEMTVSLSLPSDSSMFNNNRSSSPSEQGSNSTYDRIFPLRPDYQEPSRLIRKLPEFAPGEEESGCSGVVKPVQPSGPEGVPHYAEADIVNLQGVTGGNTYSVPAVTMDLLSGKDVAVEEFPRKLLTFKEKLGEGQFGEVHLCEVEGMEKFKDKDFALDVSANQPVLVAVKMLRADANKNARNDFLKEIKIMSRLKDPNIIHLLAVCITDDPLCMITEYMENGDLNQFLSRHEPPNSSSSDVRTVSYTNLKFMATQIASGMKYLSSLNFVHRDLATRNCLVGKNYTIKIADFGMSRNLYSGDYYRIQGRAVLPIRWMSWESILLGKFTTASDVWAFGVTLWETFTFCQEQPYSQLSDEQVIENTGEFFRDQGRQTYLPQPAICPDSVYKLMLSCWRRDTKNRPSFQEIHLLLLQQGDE
UniProt Q16644, whole entry, looked up: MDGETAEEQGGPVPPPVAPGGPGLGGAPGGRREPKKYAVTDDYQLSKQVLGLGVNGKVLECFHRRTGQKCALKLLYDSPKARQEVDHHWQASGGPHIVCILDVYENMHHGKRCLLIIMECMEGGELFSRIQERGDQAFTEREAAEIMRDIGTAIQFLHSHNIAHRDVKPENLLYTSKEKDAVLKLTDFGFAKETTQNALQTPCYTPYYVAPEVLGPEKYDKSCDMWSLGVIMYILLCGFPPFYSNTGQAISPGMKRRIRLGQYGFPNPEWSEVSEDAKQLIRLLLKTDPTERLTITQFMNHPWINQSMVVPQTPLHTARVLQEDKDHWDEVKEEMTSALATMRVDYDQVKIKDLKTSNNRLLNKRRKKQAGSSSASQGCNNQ

`O=C1Nc2ccc3ncsc3c2/C1=C/c1c[nH]cn1` showed a residual activity [1] of 77.2%, a residual activity [2] of 57.7% and a residual activity [3] of 61.5%. The residual activity [4] was 20.4%, the residual activity [5] was 94.4% and the residual activity [6] was 93.9%. For the same molecule, the residual activity [7] was 74.4%, the residual activity [8] was 10% and the residual activity [9] was 69.8%. It also gave a residual activity [10] of 2.04%, a residual activity [11] of 103% and a residual activity [12] of 10.6%. For the same molecule, the residual activity [13] was 17.4%, the residual activity [14] was 85.2% and the residual activity [15] was 40.1%. For the same molecule, the residual activity [16] was 37.5%, the residual activity [17] was 11.7% and the residual activity [18] was 4.17%. For the same molecule, the residual activity [19] was 52.8%, the residual activity [20] was 7.84% and the residual activity [21] was 12.1%. For the same molecule, the residual activity [22] was 81.2%, the residual activity [23] was 28.8% and the residual activity [24] was 41.3%. It also gave a residual activity [25] of 104%, a residual activity [26] of 54.3% and a residual activity [27] of 64.5%. The residual activity [28] was 93.7%, the residual activity [29] was 30.7% and the residual activity [30] was 93.6%. The residual activity [31] was 72.4%, the residual activity [32] was 87.2% and the residual activity [33] was 65.8%. For the same molecule, the residual activity [34] was 28%, the residual activity [35] was 70.1% and the residual activity [36] was 86.7%. The residual activity [37] was 81.9%, the residual activity [38] was 101% and the residual activity [39] was 79.2%. For the same molecule, the residual activity [40] was 84.1%, the residual activity [41] was 75.4% and the residual activity [42] was 91%.

— the kinase profiling compilation of Christmann-Franck et al. (2016)
